# Only a part is listed here, and it is no random draw. The source made the active and inactive calls. The call rests on the fitted dose curve; in most records, active means well fitted activation curve with a large enough effect; inconclusive means small, poorly fitted or top-dose-only effect; inactive means no such curve, though single readings can be large or run the other way.
# Amino acid sequences for entries named in this document (tags omitted).
# UniProt P14618, whole entry: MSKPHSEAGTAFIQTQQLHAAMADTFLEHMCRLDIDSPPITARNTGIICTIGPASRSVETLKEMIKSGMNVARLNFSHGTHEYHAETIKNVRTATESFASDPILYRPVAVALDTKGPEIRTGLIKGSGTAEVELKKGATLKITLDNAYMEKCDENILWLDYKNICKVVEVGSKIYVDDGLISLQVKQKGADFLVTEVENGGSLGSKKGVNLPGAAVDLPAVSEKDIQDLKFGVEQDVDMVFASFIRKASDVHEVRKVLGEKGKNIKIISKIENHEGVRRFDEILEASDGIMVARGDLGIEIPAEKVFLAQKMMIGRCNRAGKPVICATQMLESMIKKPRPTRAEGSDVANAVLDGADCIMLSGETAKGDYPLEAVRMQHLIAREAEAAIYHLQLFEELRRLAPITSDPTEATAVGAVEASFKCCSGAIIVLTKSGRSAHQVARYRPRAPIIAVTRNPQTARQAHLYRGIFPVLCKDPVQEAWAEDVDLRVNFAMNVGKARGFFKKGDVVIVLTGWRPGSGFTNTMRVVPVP
# Molecular target: Pyruvate kinase PKM (Homo sapiens) (UniProt P14618)
# Experiment: qHTS Assay for Activators of Human Muscle isoform 2 Pyruvate Kinase; further: nearly all actives have a fitted effect of over 55% in size
# Conditions: purified PKM2, Kinase-Glo ATP luminescence, 0% is enzyme alone, no compound; at 57.5 µM (top of the series)
# Method in brief: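 Purified hPK-M2 (>95% pure) converted ADP (0.1 mM final) to ATP with 0.5 mM PEP in 50 mM imidazole pH7.2, KCl, MgCl2, Tween 20, BSA; 1 h at room temperature. ATP detected by Kinase-Glo luminescence.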
# On the % scale 0 is the no-effect control and ±100 the full control effect.
row,SMILES,activation
1,O=[N+]([O-])c1ccc2c(c1)C=Nc1ccccc1O2,inactive: 17.6%
2,CC(C)(C)c1ccc(OP(C)(=O)Nc2ccc(SC(F)(F)F)cc2)cc1 (stereo unspecified),inactive: 1.33%
3,Cc1cccc(C)c1OP(C)(N)=O (stereo unspecified),inactive: 9.04%
4,COc1ccccc1OP(C)(=O)Nc1ccc(C)cc1 (stereo unspecified),inactive: 3.03%
5,Cc1ccc(NP(C)(=O)Oc2ccccc2)c(C)c1 (stereo unspecified),inactive: -1.56%
6,CCOC(=O)c1ccc(NP(C)(=O)Oc2ccccc2)cc1 (stereo unspecified),inactive: -3.78%
7,Cc1cc(C)cc(OP(C)(N)=O)c1 (stereo unspecified),inactive: 0.137%
8,COc1ccccc1OP(C)(=O)Nc1cc(Cl)ccc1C (stereo unspecified),inactive: -0.575%
9,COc1ccc(OP(C)(=O)Nc2cccc(F)c2)cc1 (stereo unspecified),inactive: 5.34%
10,Cc1cc(C)cc(OP(C)(=O)Nc2cccc(C(F)(F)F)c2)c1 (stereo unspecified),inactive: -2.44%
11,COc1ccccc1OP(C)(=O)Nc1ccc(C)c(C)c1 (stereo unspecified),inactive: 2.09%
12,COc1ccc(OP(C)(=O)Nc2ccccc2Br)cc1 (stereo unspecified),inactive: 2.74%
13,Cc1nc2ccc3ccccc3c2o1.O=[N+]([O-])c1cc([N+](=O)[O-])c(O)c([N+](=O)[O-])c1,inactive: 23.3%
14,CP(=O)(Nc1ccc(Cl)cc1Cl)Oc1ccccc1 (stereo unspecified),inactive: -1.91%
15,CP(=O)(OCCOc1ccccc1)OCCOc1ccccc1,inactive: -39.2%
16,COc1ccccc1OP(C)(=O)Nc1ccc(Br)cc1 (stereo unspecified),inactive: 1.97%
17,COc1ccc(OP(C)(=O)Nc2ccccn2)cc1 (stereo unspecified),inactive: -0.307%
18,CN(C)CCOC(=O)C(O)(c1ccccc1)C1CCCC1 (stereo unspecified),inactive: -1.96%
19,Cc1c(NP(C)(=O)Oc2ccc(C(C)C)cc2)c(=O)n(-c2ccccc2)n1C (stereo unspecified),inactive: 7.32%
20,O=[N+]([O-])c1cc([N+](=O)[O-])c(Nc2ccccn2)c([N+](=O)[O-])c1,inactive: -0.647%
21,CP(=O)(Nc1ccccn1)Oc1ccccc1 (stereo unspecified),inactive: 7.78%
22,COc1ccccc1OP(C)(=O)Nc1ccc(C)cc1C (stereo unspecified),inactive: -2.11%
23,CCc1ccc(OP(C)(=O)O)cc1,inactive: -3.98%
24,CCN(CC)CC(O)COC(=O)C(O)(c1ccccc1)C1CCCCC1 (stereo unspecified),inactive: 3.07%
25,COc1ccc(OP(C)(=O)Nc2ccc(Br)cc2)cc1 (stereo unspecified),inactive: -2.91%
26,O=C(OCCCN1CCCC1)C(O)(c1ccccc1)C1CCCCC1 (stereo unspecified),inactive: -17%

row,SMILES,activation
1,CP(=O)(Oc1ccccc1)N1CCOC1=O (stereo unspecified),inactive: -2.84%
2,CCc1ccc(OP(C)(=O)Nc2cccnc2)cc1 (stereo unspecified),inactive: -3.21%
3,COc1ccccc1OP(C)(=O)Nc1ccccc1Br (stereo unspecified),inactive: 0.735%
4,CC(C)(C)c1ccc(OP(C)(=O)O)cc1,inactive: -2.07%
5,CP(=O)(Nc1ccc(Cl)cc1)Oc1ccc(F)cc1 (stereo unspecified),inactive: -0.776%
6,CN(C)C(=O)c1c([N+](=O)[O-])cc([N+](=O)[O-])cc1[N+](=O)[O-],inactive: -8.94%
7,CCOC(=O)c1ccc(NP(C)(=O)Oc2ccc(Cl)cc2)cc1 (stereo unspecified),inactive: -0.0117%
8,CP(=O)(OC12CC3CC(CC(C3)C1)C2)OC12CC3CC(CC(C3)C1)C2,inactive: 0.301%
9,COc1ccc(OP(C)(=O)Nc2cccc(Br)c2)cc1 (stereo unspecified),inactive: -28.9%
10,CN(C)CCOC(=O)C(O)(c1ccccc1)C1CCCCC1 (stereo unspecified),inactive: 1.35%
11,COc1ccc(NP(C)(=O)Oc2ccccc2OC)cc1 (stereo unspecified),inactive: -0.712%
12,O=[N+]([O-])c1ccc(OP2(=O)COCCO2)cc1 (stereo unspecified),inactive: 0.885%
13,Cc1cc(-c2cccc3ccccc23)c(C)cn1.O=[N+]([O-])c1cc([N+](=O)[O-])c(O)c([N+](=O)[O-])c1,inactive: -1.42%
14,CP(=O)(Nc1ccc(SC(F)(F)F)cc1)Oc1ccc(F)cc1 (stereo unspecified),inactive: -2.74%
15,CCOP(C)(=S)SCC(=O)NC(C)(CC)C(=O)O (stereo unspecified),inactive: -6.17%
16,CP(=O)(Nc1ccc2c(c1)OCCO2)Oc1ccccc1 (stereo unspecified),inactive: -2.58%
17,Cc1ccccc1NP(C)(=O)Nc1ccccc1C,inactive: -0.584%
18,CP(=O)(Nc1ccccc1F)Oc1ccccc1 (stereo unspecified),inactive: 3.86%
19,CC(C)c1ccc(OP(C)(=O)Nc2ccc(SC(F)(F)F)cc2)cc1 (stereo unspecified),inactive: 3.97%
20,O=C(OCCN1CCN(CCOCc2ccccc2)CC1)C(O)(c1ccccc1)c1ccccc1,inactive: -0.392%
21,CCOC(=O)c1ccc(NP(C)(=O)Oc2ccc(F)cc2)cc1 (stereo unspecified),inactive: 6.08%
22,COc1ccc(OP(C)(=O)Nc2ccc(SC(F)(F)F)cc2)cc1 (stereo unspecified),inactive: 0.0907%
23,CCN(CC)CCCOC(=O)C(O)(c1ccccc1)C1CCCCC1 (stereo unspecified),inactive: 4.11%
24,CP(=O)(Nc1ccccc1)Oc1ccc(F)cc1 (stereo unspecified),inactive: -7.81%
25,CCCCCOc1ccc(NP(C)(=O)Oc2ccc(Cl)cc2Cl)cc1 (stereo unspecified),inactive: -4.2%

# Source: PubChem BioAssay AID1631 (National Center for Advancing Translational Sciences (NCATS), 2009)
